Data reported in patent US20150253305A1, “METHODS OF IDENTIFYING COMPOUNDS FOR TREATING DEPRESSION AND OTHER RELATED DISEASES” (NORTHWESTERN UNIVERSITY, priority 2012, published 2015).

Tests used:
Sprague-Dawley rats = assay: Open field locomotor activity (line crosses); details: ketamine 10 mg/kg SC; GLYX-13 10 mg/kg IV
[1] = test system: Schaffer collateral-CA1 synapses; assay: Ex vivo LTP at Schaffer collateral-CA1 synapses; details: 24 hrs post dosing; GLYX-13 3 mg/kg IV, ketamine 10 mg/kg IV

Which results are given for `CNC1(c2ccccc2Cl)CCCCC1=O` (centres unmarked) [Ketamine, ketamine]?
locomotor activity in the open field as measured by line crosses (Sprague-Dawley rats): reduced locomotor activity; magnitude of ex vivo long-term potentiation (LTP) at Schaffer collateral-CA1 synapses [1]: enhances the magnitude of ex vivo long-term potentiation (LTP)
